{
  "source": "patent US7655454B1",
  "about": "“Bacteriological culture medium for Campylobacteriaceae species” (priority 2005, dated 2010)",
  "key": {"[1]": {"test_system": "Campylobacter fetus subsp. fetus ATCC 27374", "conditions": "approximately 10, 20, 30, 40, or 50 mM acid; P<0.05"}, "[2]": {"test_system": "Campylobacter jejuni subsp. doylei ATCC 49349", "conditions": "approximately 10, 20, 30, 40, or 50 mM acid; P<0.05"}},
  "data": [
    {"smiles": "O=C(O)CC(O)C(=O)O", "note": "(racemic) [Malic, DL-malic acid]", "values": [
      {"measurement": "OD of cultures compared with cultures in non-supplemented media", "setting": "[1]", "result": "significantly higher"}
    ]},
    {"smiles": "O=C(O)CC(O)(CC(=O)O)C(=O)O", "note": "[Citric, citric acid]", "values": [
      {"measurement": "absorbance compared with cultures grown in non-supplemented media", "setting": "[2]", "result": "inability of citric acid to stimulate Campylobacter growth at any level of supplementation"}
    ]},
    {"smiles": "O=C(O)/C=C/C(=O)O", "note": "[Fumaric, fumaric acid]", "values": [
      {"measurement": "OD of cultures compared with cultures in non-supplemented media", "setting": "[1]", "result": "significantly higher"}
    ]},
    {"smiles": "O=C(O)CCC(=O)O", "note": "[Succinic, succinic acid]", "values": [
      {"measurement": "OD of cultures compared with cultures in non-supplemented media", "setting": "[1]", "result": "significantly higher"}
    ]}
  ]
}
